Data as given in patent US8106041B2, “Combination product comprising an antagonist or inverse agonist of histamine receptor H3 and an antipsychotic and antidepressant agent, and use thereof for the preparation of a medicament that prevents the adverse effects of psychotropic drugs” (Bioprojet, priority 2003, dated 2012).

Test: human volunteer study: alertness (quantitative EEG), cognition (psychometric tests), satiety, leptin, tolerance, blood levels
Format: in vivo
Details: 6 male volunteers, oral; olanzapine 5 mg alone; analyzed for 24 hours
Protocol: A group of 6 male volunteers received orally, successively and at one-week intervals: 1) a placebo 2) olanzapine at a dose of 5 mg 3) BF 2649 at a dose of 60 mg 4) a combination of olanzapine and BF 2649 at the doses indicated above.
The subjects were then analyzed for a period of 24 hours with regard to parameters of alertness (quantitative EEG), cognition (various psychometric tests) and satiety (questionnaires for the self-evaluation of feelings of hunger, desire to eat, gastric fullness). In addition, the levels of the two medicaments in the blood was analyzed repeatedly in the course of the nychthemeron.

SMILES: Cc1cc2c(s1)Nc1ccccc1N=C2N1CCN(C)CC1 [olanzapine]
- feelings of hunger (satiety self-evaluation questionnaires): very marked increase
- psychometric tests, in particular attention (cognition): profound deterioration
- rapid waves of the EEG (quantitative EEG): decrease in the rapid waves of the EEG to the benefit of the slow waves
- sedation (alertness): deep sedation
